Several values for one entry are separate records, joined by “and”; a condition that tells them apart may be missing. Identical values can stand only once. Entries after “also recorded” stand apart in the source; their conditions may differ.
Assay: Safety and tolerability (AEs by CTCAE v4.0, DLTs, laboratory, ECG/ECHO, ophthalmic) in Phase I study NCT01213160
Type: in vivo, human
Method: A ‘rolling six’ design was used, with a minimum of three evaluable patients per cohort. If one patient experienced a dose-limiting toxicity (DLT), additional patients were enrolled up to a maximum of six evaluable patients. DLTs were evaluated during the washout period and the first 21-day treatment schedule. […] If two or more evaluable patients experienced a DLT, this dosing level was considered as non-tolerable. It was planned that the maximum tolerated dose (MTD) would be defined either as the dosing level below the non-tolerated dose or such that a dose between the non-tolerated dose and the last tolerated dose may be investigated. Patients who tolerated AZD4547 treatment and received clinical benefit were permitted to continue treatment until they experienced progressive disease or withdrew consent.
Safety and tolerability were assessed during study treatment and until 28 days after the final dose. Adverse events (AEs) were evaluated according to CTCAE (version 4.0), and dose interruptions and reductions were recorded. Laboratory findings and vital signs were analysed. Cardiac monitoring (echocardiogram [ECHO] and ECG) and ophthalmic assessments were also conducted.

AZD4547
Nausea, SAE grade ≥3 event (Part A, 160 mg qd (N = 15)): 0 (0) n (%) | Neutropenia, CTCAE grade ≥3 event (Part A, 160 mg qd (N = 15)): 0 (0) n (%) | Patients with AE of any grade (Part A, 160 mg qd (N = 15)): 14 (93.3) n (%) | Patients with CTCAE grade ≥3 event (Part A, 160 mg qd (N = 15)): 0 (0) n (%) | Patients with SAE grade ≥3 event (Part A, 160 mg qd (N = 15)): 0 (0) n (%) | Pneumonia, CTCAE grade ≥3 event (Part A, 160 mg qd (N = 15)): 0 (0) n (%) | Stomatitis, AE of any grade (Part A, 160 mg qd (N = 15)): 3 (20.0) n (%) | Stomatitis, CTCAE grade ≥3 event (Part A, 160 mg qd (N = 15)): 0 (0) n (%) | Stomatitis, SAE grade ≥3 event (Part A, 160 mg qd (N = 15)): 0 (0) n (%) | Vomiting, AE of any grade (Part A, 160 mg qd (N = 15)): 2 (13.3) n (%) | Discontinuation for AEs, patients (Part A, 80 mg bid): 3 n | Patients with an AE of CTCAE grade ≥3 (Part A, 80 mg bid): 10.0% | SAEs deemed causally related to AZD4547 treatment (Part A, 80 mg bid): Only one SAE, decreased appetite and nausea | Decreased appetite, patients (Part B): 50.0% | Dry mouth, patients (Part B): 50.0% | Dysgeusia, patients (Part B): 75.0% | Hyperphosphataemia, patients (Part B): 50.0% | Nausea, patients (Part B): 50.0% | Patients with AEs leading to discontinuation (Part B): None of the patients | Patients with SAEs (Part B): 25.0% | Patients with an AE of CTCAE grade ≥3 (Part B): 75.0% | Patients with dose interruption as a result of an AE (Part B): 25.0% | Patients with dose reductions after reporting AEs (Part B): 50.0% | Patients with treatment-related increases in blood phosphate levels (Part B): 50.0% | Relatedness of CTCAE grade ≥3 AEs to treatment (Part B): not deemed to be treatment related | Stomatitis, patients (Part B): 50.0% | Decreased appetite, AE of any grade (Part B, 80 mg bid (N = 4)): 2 (50.0) n (%) | Decreased appetite, CTCAE grade ≥3 event (first line, r20) (Part B, 80 mg bid (N = 4)): 2 (50.0) n (%) | Decreased appetite, CTCAE grade ≥3 event (second line, r24) (Part B, 80 mg bid (N = 4)): 0 (0) n (%) | Decreased appetite, SAE grade ≥3 event (Part B, 80 mg bid (N = 4)): 1 (25.0) n (%) | Detachment of retinal pigment epithelium, AE of any grade (Part B, 80 mg bid (N = 4)): 1 (25.0) n (%) | Diarrhoea, AE of any grade (Part B, 80 mg bid (N = 4)): 1 (25.0) n (%) | Dry mouth, AE of any grade (Part B, 80 mg bid (N = 4)): 2 (50.0) n (%) | Dry skin, AE of any grade (Part B, 80 mg bid (N = 4)): 0 (0) n (%) | Dysgeusia, AE of any grade (Part B, 80 mg bid (N = 4)): 3 (75.0) n (%) | Hyperphosphataemia, AE of any grade (Part B, 80 mg bid (N = 4)): 2 (50.0) n (%) | Hypoglycaemia, CTCAE grade ≥3 event (Part B, 80 mg bid (N = 4)): 1 (25.0) n (%) | Increased alanine aminotransferase, CTCAE grade ≥3 event (Part B, 80 mg bid (N = 4)): 0 (0) n (%) | Malaise, AE of any grade (Part B, 80 mg bid (N = 4)): 1 (25.0) n (%) | Nausea, AE of any grade (Part B, 80 mg bid (N = 4)): 2 (50.0) n (%) | Nausea, CTCAE grade ≥3 event (Part B, 80 mg bid (N = 4)): 0 (0) n (%) | Nausea, SAE grade ≥3 event (Part B, 80 mg bid (N = 4)): 0 (0) n (%) | Neutropenia, CTCAE grade ≥3 event (Part B, 80 mg bid (N = 4)): 1 (25.0) n (%) | Patients with AE of any grade (Part B, 80 mg bid (N = 4)): 4 (100) n (%) | Patients with CTCAE grade ≥3 event (Part B, 80 mg bid (N = 4)): 3 (75.0) n (%) | Patients with SAE grade ≥3 event (Part B, 80 mg bid (N = 4)): 1 (25.0) n (%) | Pneumonia, CTCAE grade ≥3 event (Part B, 80 mg bid (N = 4)): 1 (25.0) n (%) | Stomatitis, AE of any grade (Part B, 80 mg bid (N = 4)): 2 (50.0) n (%) | Stomatitis, CTCAE grade ≥3 event (Part B, 80 mg bid (N = 4)): 0 (0) n (%) | Stomatitis, SAE grade ≥3 event (Part B, 80 mg bid (N = 4)): 0 (0) n (%) | Vomiting, AE of any grade (Part B, 80 mg bid (N = 4)): 1 (25.0) n (%) | Dose-limiting toxicities (DLTs) (Part B, RD of 80 mg bid): No DLTs were observed | Decreased appetite, CTCAE grade ≥3 event (first line, r20) (Total Part A (N = 30)): 1 (3.3) n (%) | Decreased appetite, CTCAE grade ≥3 event (second line, r24) (Total Part A (N = 30)): 1 (3.3) n (%) | Decreased appetite, SAE grade ≥3 event (Total Part A (N = 30)): 1 (3.3) n (%) | Detachment of retinal pigment epithelium, AE of any grade (Total Part A (N = 30)): 7 (23.3) n (%) | Diarrhoea, AE of any grade (Total Part A (N = 30)): 12 (40.0) n (%) | Dry mouth, AE of any grade (Total Part A (N = 30)): 10 (33.3) n (%) | Dry skin, AE of any grade (Total Part A (N = 30)): 9 (30.0) n (%) | Dysgeusia, AE of any grade (Total Part A (N = 30)): 14 (46.7) n (%) | Hyperphosphataemia, AE of any grade (Total Part A (N = 30)): 11 (36.7) n (%) | Hypoglycaemia, CTCAE grade ≥3 event (Total Part A (N = 30)): 1 (3.3) n (%) | Increased alanine aminotransferase, CTCAE grade ≥3 event (Total Part A (N = 30)): 1 (3.3) n (%) | Malaise, AE of any grade (Total Part A (N = 30)): 6 (20.0) n (%) | Nausea, AE of any grade (Total Part A (N = 30)): 8 (26.7) n (%) | Nausea, CTCAE grade ≥3 event (Total Part A (N = 30)): 2 (6.7) n (%) | Nausea, SAE grade ≥3 event (Total Part A (N = 30)): 1 (3.3) n (%) | Neutropenia, CTCAE grade ≥3 event (Total Part A (N = 30)): 2 (6.7) n (%) | Patients with CTCAE grade ≥3 event (Total Part A (N = 30)): 3 (10.0) n (%) | Patients with SAE grade ≥3 event (Total Part A (N = 30)): 2 (6.7) n (%) | Stomatitis, AE of any grade (Total Part A (N = 30)): 12 (40.0) n (%) | Stomatitis, CTCAE grade ≥3 event (Total Part A (N = 30)): 1 (3.3) n (%) | Stomatitis, SAE grade ≥3 event (Total Part A (N = 30)): 1 (3.3) n (%) | Vomiting, AE of any grade (Total Part A (N = 30)): 6 (20.0) n (%) | Dose-limiting toxicities (DLTs) (across the four cohorts (40, 80, 120 mg bid; 160 mg qd)): No dose-limiting toxicities were observed; also recorded: No DLTs were observed; also recorded: no DLTs were reported | Diarrhoea, AE any grade, patients (all patients (Parts A and B)): 38% | Dry mouth, AE any grade, patients (all patients (Parts A and B)): 35% | Dysgeusia, AE any grade, patients (all patients (Parts A and B)): 50% | Hyperphosphataemia, AE any grade, patients (all patients (Parts A and B)): 38% | Stomatitis, AE any grade, patients (all patients (Parts A and B)): 41% | Grade of phosphate-related events (all phosphate-related events): ≤ 3 CTCAE grade | Tolerability (expansion phase, RD of 80 mg bid, FGFR-amplified tumours): well tolerated | Cardiac toxicity (in vivo): no significant cardiac toxicity was reported | Changes in vital or physical signs (in vivo): No clinically relevant changes | Patients with absolute LVEF value of <55% (in vivo): three patients | Patients with decrease in LVEF of ≥10 percentage points (in vivo): Three patients | Severity and reversibility of AEs (in vivo): generally mild to moderate and reversible upon withdrawal of treatment | Transaminases and blood creatinine (mainly a one-grade shift): A trend in mean-value increase | Death during study period, relation to treatment (one death, 160 mg qd, following disease progression): not causally related to AZD4547 treatment | Abnormal ECG with treatment (one patient (120 mg bid) with normal ECG at baseline): not considered to be clinically relevant | Retinal events leading to study-drug discontinuation, patients (overall (7/34)): 20.5% | Patients with AEs considered causally related to AZD4547 (overall (30/34)): 88.2% | Decreased appetite, grade ≥3 AE, patients (overall (N = 34)): 8.8% | Nausea, grade ≥3 AE, patients (overall (N = 34)): 5.8% | Neutropenia, grade ≥3 AE, patients (overall (N = 34)): 9% and 8.8%

— article PMC5502072, “Safety, tolerability and pharmacokinetics of the fibroblast growth factor receptor inhibitor AZD4547 in Japanese patients with advanced solid tumours: a Phase I study” (Investigational New Drugs, 2017)
